pIC50: −log10 of the molar value. Counter-ions that a name gives are not always drawn.
target: T1, Porcine kidney-derived DPP-IV (Sus scrofa, UniProt P22411); test: DPPIV-inhibiting activity assay; assay type: biochemical; details: Gly-Pro-p-nitroanilide 0.33 mM, reaction time 20 minutes, absorbance at 405 nm
T1 construct: Porcine kidney-derived DPP-IV was dissolved in a reaction buffer; from tissue; host or cells: porcine kidney
Experimental: DPPIV-Inhibiting Activity Assay
Porcine kidney-derived DPP-IV was dissolved in a reaction buffer (50 mM Tris-HCl (pH 7.4)/0.1% BSA) at a concentration of 10 mg/ml. After 110 μl of this solution had been combined with 15 μl of an agent, the mixture was incubated at room temperature for 20 minutes. 25 μl of 2 mM Gly-Pro-p-nitroanilide was added (to a final concentration of 0.33 mM) to the solution to initiate the enzyme reaction. The reaction time was 20 minutes. 25 μl of 1N phosphoric acid solution was added to the reaction solution to quench the reaction.

Protein sequences, listed by entry. Tags and fused reporters are not part of them. Lines headed by an entry give the natural chain unless they say otherwise; changes in a name come on top.
UniProt P22411: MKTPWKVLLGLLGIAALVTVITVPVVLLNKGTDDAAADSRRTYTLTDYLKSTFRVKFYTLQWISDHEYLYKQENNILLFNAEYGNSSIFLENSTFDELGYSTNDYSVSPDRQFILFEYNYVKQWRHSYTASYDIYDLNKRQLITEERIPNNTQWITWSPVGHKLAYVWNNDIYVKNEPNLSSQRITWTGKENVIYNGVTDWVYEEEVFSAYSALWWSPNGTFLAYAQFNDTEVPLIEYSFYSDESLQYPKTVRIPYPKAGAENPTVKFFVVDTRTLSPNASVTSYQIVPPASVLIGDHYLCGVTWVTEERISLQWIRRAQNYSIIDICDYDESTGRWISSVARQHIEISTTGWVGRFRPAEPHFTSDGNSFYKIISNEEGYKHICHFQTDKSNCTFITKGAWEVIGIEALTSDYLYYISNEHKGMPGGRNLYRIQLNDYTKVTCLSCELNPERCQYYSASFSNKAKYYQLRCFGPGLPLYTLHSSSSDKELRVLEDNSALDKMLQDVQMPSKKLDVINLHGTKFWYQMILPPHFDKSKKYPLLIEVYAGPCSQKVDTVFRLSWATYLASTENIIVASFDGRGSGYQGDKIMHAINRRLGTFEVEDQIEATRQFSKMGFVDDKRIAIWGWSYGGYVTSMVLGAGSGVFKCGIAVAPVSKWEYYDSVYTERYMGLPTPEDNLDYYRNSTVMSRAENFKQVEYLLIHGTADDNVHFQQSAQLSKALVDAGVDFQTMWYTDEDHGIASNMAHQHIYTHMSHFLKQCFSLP

Q: With `CC#CCn1c(N2CCNCC2)nc2nc(OC)n(Cc3ccccc3C#N)c(=O)c21` [Example 98, 2-[7-(2-Butynyl)-2-methoxy-6-oxo-8-(piperazin-1-yl)-6,7-dihydropurin-1-ylmethyl]benzonitrile hydrochloride] as the molecule, how does the pIC50 read?
A: 8.01

Q: How did the pIC50 turn out when `CC#CCn1c(N2CCNCC2)nc2nc(C)n(C)c(=O)c21` [Example 22, 7-(2-Butynyl)-1,2-dimethyl-8-(piperazin-1-yl)-1,7-dihydropurin-6-one trifluoroacetate] was run?
A: 6.77

Q: `CC#CCn1c(N2CCNCC2)nc2nc(Sc3nc(C)cs3)n(C)c(=O)c21` [Example 159, 7-(2-Butynyl)-1-methyl-2-(4-methylthiazol-2-ylsulfanyl)-8-(piperazin-1-yl)-1,7-dihydropurin-6-one trifluoroacetate] was tested. Which pIC50 did it give?
A: 7.42

Q: `CC#CCn1c(N2CCNCC2)nc2nc(Oc3cccnc3C(N)=O)n(Cc3ccccc3C#N)c(=O)c21` [Example 230, 3-[7-(2-Butynyl)-1-(2-cyanobenzyl)-6-oxo-8-(piperazin-1-yl)-6,7-dihydro-1H-purin-2-yloxy]pyridine-2-carboxylic amide trifluoroacetate] was tested. Which pIC50 did it give?
A: 9.05

Q: With `CC#CCn1c(N2CCNCC2)nc2cnn(CC(=O)c3cccc(OC)c3)c(=O)c21` [Example 266, 3-(2-Butynyl)-5-[2-(3-methoxyphenyl)-2-oxoethyl]-2-(piperazin-1-yl)-3,5-dihydroimidazo[4,5-d]pyridazin-4-one trifluoroacetate] as the molecule, how does the pIC50 read?
A: 8.81

Q: How did the pIC50 turn out when `CC#CCn1c(N2CCNCC2)nc2nc(SC(C)c3cccs3)n(C)c(=O)c21` (stereo not drawn) [Example 146, 7-(2-Butynyl)-1-methyl-8-(piperazin-1-yl)-2-[1-(thiophen-2-yl)ethylsulfanyl]-1,7-dihydropurin-6-one trifluoroacetate] was run?
A: 7.09

Source: US20060100199A1, “Novel condensed imidazole derivatives” (priority 2003, published 2006)
